Values of other authors as cited in patent publication US20250228953A1, “INTRACELLULAR TARGETING OF OLIGONUCLEOTIDES” (Entrada Therapeutics, Inc., priority 2021, published 2025).

Conditions: as reported by Tien, et al.; cited from earlier work

## O=C(O)[C@@H]1CCCN1 [Pro, Proline]
  SASA, Theoretical: 159.0 Å^2
